The text below walks through data of PubChem BioAssay AID2171 (The Scripps Research Institute Molecular Screening Center, 2009).

Chains of the proteins cited; added tags and fusions are not shown.
UniProt Q9Y570, whole entry: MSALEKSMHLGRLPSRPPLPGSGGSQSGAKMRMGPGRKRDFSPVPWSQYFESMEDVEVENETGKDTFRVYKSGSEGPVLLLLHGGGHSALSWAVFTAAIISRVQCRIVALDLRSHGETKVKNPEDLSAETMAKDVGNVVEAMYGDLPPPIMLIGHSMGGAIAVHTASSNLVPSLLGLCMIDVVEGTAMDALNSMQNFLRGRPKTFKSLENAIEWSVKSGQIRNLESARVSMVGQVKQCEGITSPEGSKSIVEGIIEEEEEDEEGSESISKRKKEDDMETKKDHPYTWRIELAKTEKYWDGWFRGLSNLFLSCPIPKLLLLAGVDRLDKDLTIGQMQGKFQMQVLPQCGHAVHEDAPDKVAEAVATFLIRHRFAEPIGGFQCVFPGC

Only a part is listed here, and it is no random draw. Calls of active or inactive are those of the source.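 Rule for the calls: active = inhibition above the hit cutoff set in the earlier primary screen (cut at about 27% in these data); inactive = the rest.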

The target of the assay is Protein phosphatase methylesterase 1 (Homo sapiens) (UniProt Q9Y570). The assay is described as follows: human PME-1 methylesterase inhibition confirmation – biochemical, fluorescence polarization, FP-Rh probe, triplicate (AID 2171).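 Note: 0% = enzyme with DMSO and 100% = wells lacking PME-1.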 Particulars: recombinant PME-1, FP-Rh probe fluorescence polarization; at 5.9 µM; active compounds read high. A general note: In fluorescence polarisation assays a small probe gives low polarisation when free and higher when bound to something large.
As a reminder, the inhibition is the share of the control response that was lost under treatment. `CP(=O)(Nc1ccccc1Br)Oc1ccccc1` (centres undefined): the inhibition was active: 62.2%. The result for `COc1ccccc1OP(C)(=O)Nc1c(C)cccc1C` (centres undefined) reads active: 47.1%. The result for `CCCCCOc1ccc(NP(C)(=O)Oc2ccc(Cl)cc2Cl)cc1` (centres undefined) reads active: 73.8%; that for `CCOC(=O)c1ccc(NP(C)(=O)Oc2ccc(Cl)cc2)cc1` (centres undefined), active: 48%.
